Earlier results in US8404838B2, “Inhibitors of tyrosine kinase receptor dimerization” (Washington University, priority 2008, dated 2013).

Assays:
[1] = biological target: T1, ΔC-EGFR-NLuc and ΔC-EGFR-CLuc (Homo sapiens, UniProt P00533); conditions: from Yang et al. 2009; cited from earlier work
T1 construct: luciferase fragment complementation assay designed for monitoring the dimerization of the extracellular domain of the EGF receptor; expressed in transfected cells; the other entry of the earlier key: firefly luciferase (P08659, Luciferin 4-monooxygenase)

EGF receptor = biological target: T2, EGF receptor (Homo sapiens, UniProt P00533); conditions: from Gan et al. 2007; cited from earlier work
T2 construct: CHO cells stably expressing wild type EGF receptor; expressed in transfected cells

In the case of `COc1cc2ncnc(Nc3cccc(Cl)c3)c2cc1OC` [AG1478], the “EGF receptor dimer formation by luciferase fragment complementation” value [1] is given as “increased dimer-formation” and the “EGF receptor dimer formation by chemical crosslinking” value (EGF receptor) is given as “increased dimer-formation”.
